Experimental data as given in BindingDB's records for doi:10.1021/jm00027a001 (Telios Pharmaceuticals, 1994).

Chains of the proteins cited; added tags and fusions are not shown. Residues count along the entry.
UniProt P08648, 895-1049 limits assumed: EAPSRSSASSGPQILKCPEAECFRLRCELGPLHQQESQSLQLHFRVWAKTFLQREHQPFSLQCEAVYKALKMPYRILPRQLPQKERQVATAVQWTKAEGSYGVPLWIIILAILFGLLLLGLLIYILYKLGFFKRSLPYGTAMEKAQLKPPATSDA
UniProt P08648, 42-894 limits assumed: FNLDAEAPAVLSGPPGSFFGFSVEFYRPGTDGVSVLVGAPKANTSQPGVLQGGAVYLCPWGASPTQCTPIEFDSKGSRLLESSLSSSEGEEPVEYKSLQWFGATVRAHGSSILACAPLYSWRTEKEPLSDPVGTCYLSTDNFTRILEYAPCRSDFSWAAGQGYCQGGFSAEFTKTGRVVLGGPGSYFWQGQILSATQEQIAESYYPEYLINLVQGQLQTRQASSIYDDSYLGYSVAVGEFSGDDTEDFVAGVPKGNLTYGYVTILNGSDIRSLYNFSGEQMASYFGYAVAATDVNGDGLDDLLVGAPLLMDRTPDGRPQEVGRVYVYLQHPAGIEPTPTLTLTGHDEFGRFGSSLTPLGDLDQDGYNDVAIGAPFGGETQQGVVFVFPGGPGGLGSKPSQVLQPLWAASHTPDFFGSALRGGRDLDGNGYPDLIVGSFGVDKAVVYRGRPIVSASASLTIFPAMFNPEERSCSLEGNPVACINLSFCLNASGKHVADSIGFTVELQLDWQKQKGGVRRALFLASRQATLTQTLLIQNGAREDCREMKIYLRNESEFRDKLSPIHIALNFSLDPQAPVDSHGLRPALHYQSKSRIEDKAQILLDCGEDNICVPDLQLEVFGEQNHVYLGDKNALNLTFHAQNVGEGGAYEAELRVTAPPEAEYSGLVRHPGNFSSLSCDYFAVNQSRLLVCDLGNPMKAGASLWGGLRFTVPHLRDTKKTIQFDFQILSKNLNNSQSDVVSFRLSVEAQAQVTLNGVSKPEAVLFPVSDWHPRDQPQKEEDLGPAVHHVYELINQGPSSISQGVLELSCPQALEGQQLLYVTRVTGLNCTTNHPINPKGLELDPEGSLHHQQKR
UniProt P05106, 27-788 limits assumed: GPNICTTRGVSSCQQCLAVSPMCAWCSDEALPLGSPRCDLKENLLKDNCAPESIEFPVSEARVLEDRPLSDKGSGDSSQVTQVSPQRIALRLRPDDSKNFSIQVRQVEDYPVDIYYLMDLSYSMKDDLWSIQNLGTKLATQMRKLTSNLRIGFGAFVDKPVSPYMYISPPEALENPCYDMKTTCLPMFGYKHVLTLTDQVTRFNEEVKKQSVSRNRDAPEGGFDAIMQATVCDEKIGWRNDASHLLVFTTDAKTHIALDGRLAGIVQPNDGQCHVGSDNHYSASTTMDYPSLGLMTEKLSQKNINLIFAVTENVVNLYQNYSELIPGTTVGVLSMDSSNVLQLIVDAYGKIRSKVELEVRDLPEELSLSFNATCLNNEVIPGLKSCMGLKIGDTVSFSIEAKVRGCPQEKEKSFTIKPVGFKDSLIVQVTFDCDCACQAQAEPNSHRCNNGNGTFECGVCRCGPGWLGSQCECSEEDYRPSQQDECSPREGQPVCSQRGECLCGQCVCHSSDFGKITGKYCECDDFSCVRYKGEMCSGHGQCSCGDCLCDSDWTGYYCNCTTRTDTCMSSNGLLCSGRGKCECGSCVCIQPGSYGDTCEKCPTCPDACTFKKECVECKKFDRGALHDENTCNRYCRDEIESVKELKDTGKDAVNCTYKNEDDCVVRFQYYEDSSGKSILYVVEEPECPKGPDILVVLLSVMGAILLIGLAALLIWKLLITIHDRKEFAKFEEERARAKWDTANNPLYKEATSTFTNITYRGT
UniProt P08514, 32-887 limits assumed: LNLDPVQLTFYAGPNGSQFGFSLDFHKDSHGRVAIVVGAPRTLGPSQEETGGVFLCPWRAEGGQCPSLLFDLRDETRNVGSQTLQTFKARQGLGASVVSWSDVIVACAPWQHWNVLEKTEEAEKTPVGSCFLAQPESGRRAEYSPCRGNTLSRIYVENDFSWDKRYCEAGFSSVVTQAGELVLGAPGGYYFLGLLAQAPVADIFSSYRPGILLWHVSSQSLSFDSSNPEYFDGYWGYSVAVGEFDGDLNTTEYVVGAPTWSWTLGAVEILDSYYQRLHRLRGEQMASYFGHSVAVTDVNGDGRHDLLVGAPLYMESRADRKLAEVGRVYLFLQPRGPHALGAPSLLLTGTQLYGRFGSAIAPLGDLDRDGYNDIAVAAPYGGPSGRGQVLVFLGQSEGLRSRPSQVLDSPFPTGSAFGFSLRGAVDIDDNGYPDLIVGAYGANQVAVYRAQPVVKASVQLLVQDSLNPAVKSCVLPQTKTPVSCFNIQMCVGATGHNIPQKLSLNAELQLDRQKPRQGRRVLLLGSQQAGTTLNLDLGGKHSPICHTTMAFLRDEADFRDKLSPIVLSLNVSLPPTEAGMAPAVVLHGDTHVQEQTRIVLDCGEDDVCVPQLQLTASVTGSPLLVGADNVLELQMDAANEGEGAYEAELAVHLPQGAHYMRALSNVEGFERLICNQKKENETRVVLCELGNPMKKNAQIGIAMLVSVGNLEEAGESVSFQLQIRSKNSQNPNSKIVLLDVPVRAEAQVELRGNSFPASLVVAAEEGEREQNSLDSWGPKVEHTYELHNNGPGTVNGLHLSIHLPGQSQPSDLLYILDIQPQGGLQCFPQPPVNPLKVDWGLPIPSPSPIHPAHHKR
UniProt P08514, 891-1039 limits assumed: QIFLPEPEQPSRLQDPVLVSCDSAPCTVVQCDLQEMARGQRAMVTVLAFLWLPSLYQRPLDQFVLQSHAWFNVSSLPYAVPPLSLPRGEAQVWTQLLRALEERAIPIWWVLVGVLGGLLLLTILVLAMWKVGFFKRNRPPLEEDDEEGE

Assays:
Integrin alpha-5/beta-1 = Integrin alpha-5/beta-1 (Homo sapiens, UniProt P08648+P05556); assay: Binding affinity against integrin alpha5-beta1 in enzyme linked immunosorbent assay (ELISA)
[1] = target: Integrin alpha-IIb/beta-3 (Homo sapiens, UniProt P05106+P08514); assay: Binding affinity against integrin alpha 2b-beta 3 in enzyme linked immunosorbent assay (ELISA)
In short: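 Purified human platelet αIIbβ3 (from outdated platelets, octyl glucoside extract) in TBS with 20 mM octyl glucoside, 2 mM MgCl2 and 2 mM CaCl2 binds to plate-coated human fibrinogen (10 µg/mL in TBS) with 10-fold serial peptide dilutions for 3 h at room temperature. Bound receptor is detected with rabbit anti-αIIbβ3, then HRP anti-rabbit IgG, with o-phenylenediamine/H2O2 at pH 5.0. IC50 is reported.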

| Compound | IC50 (Integrin alpha-5/beta-1) | IC50 [1] |
| --- | --- | --- |
| CC[C@H](C)[C@@H]1NC(=O)[C@@H](NC(C)=O)CSSC[C@@H](C(N)=O)NC(=O)[C@H](CCCNC(=N)N)NC(=O)[C@H](Cc2ccc(OC)cc2)NC(=O)[C@H](CC(=O)O)NC(=O)CNC(=O)[C@H](CCCNC(=N)N)NC(=O)[C@@H]2CCCN2C1=O [Ac-C-I-P-R-G-D-(Y-OMe)R-C-NH2] | 4.3 µM |  |
| CCCCOc1ccc(C[C@@H]2NC(=O)[C@H](Cc3ccc(OC)cc3)NC(=O)[C@H](CC(=O)O)NC(=O)CNC(=O)[C@H](CCCN=C(N)N)NC(=O)[C@@H]3CCCN3C(=O)[C@H](CC(N)=O)NC(=O)[C@@H](NC(C)=O)CSSC[C@@H](C(N)=O)NC2=O)cc1 [Ac-C-N-P-R-G-D-(Y-O-n-butyl)-R-C-NH2] | 7.7 µM |  |
| COc1ccc(C[C@@H]2NC(=O)[C@H](CC(=O)O)NC(=O)CNC(=O)[C@H](CCCNC(=N)N)NC(=O)[C@H](Cc3ccc(O)cc3)NC(=O)CNC(=O)[C@@H](NC(=O)[C@@H](N)CCCNC(=N)N)C3(CCCCC3)SSC[C@@H](C(=O)N[C@@H](CCCNC(=N)N)C(=O)O)NC(=O)[C@H](CCCNC(=N)N)NC2=O)cc1 [R(Pmc)-G-(DY)-R-G-D-(Y-OMe)-R-C-R] |  | 0.03 µM |
| CCCCOc1ccc(C[C@@H]2NC(=O)[C@H](CC(=O)O)NC(=O)CNC(=O)[C@H](CCCNC(=N)N)NC(=O)[C@H](Cc3c[nH]cn3)NC(=O)CNC(=O)[C@@H](NC(=O)[C@@H](N)CCCNC(=N)N)C3(CCCCC3)SSC[C@@H](C(=O)N[C@@H](CCCNC(=N)N)C(=O)O)NC(=O)[C@H](CCCNC(=N)N)NC2=O)cc1 [R(Pmc)-G-H-R-G-D-(Y-O-n-butyl)-R-C-R] | 6.6 µM |  |
| COc1ccc(C[C@@H]2NC(=O)[C@H](CC(=O)O)NC(=O)CNC(=O)[C@H](CCCN=C(N)N)NC(=O)[C@H](Cc3c[nH]cn3)NC(=O)[C@H](CC(N)=O)NC(=O)[C@@H](NC(=O)[C@@H](N)CCCN=C(N)N)C3(CCCCC3)SSC[C@@H](C(=O)N[C@@H](CCCN=C(N)N)C(=O)O)NC(=O)[C@H](CCCN=C(N)N)NC2=O)cc1 [R(Pmc)-N-H-R-G-D-(Y-OMe)-R-C-R] | 4.7 µM |  |
